This is one part of the list.

This assay relates to A. baumannii ATCC 17978. Description: relative growth (fraction of control); higher = less inhibition. As to conditions: 50 µM.
Compound `C[C@H](CO)N1C[C@H](C)[C@@H](CN(C)C(=O)C2CCOCC2)Oc2cc(-c3ccc(F)cc3)ccc2S1(=O)=O` gave a relative growth of 0.952. The value for `CCN(CC)CCOC(=O)C(Cc1cccc2ccccc12)CC1CCCO1.O=C(O)C(=O)O` (configuration not stated) was 1.01; that for `O=S(=O)(NCC[C@@H]1CC[C@@H](NS(=O)(=O)c2ccccc2Cl)[C@H](CO)O1)c1ccc(F)cc1` was 0.921. As to `C=CC(C1=CC(=O)C(OC)=CC1=O)c1ccccc1` (configuration not stated), the relative growth is 1.05. The compound `O=C(C[C@H]1CC[C@H](NC(=O)CN2CCOCC2)[C@H](CO)O1)NCCc1ccccc1` gave a relative growth of 1.03. The same measure for `Clc1ccc(C(Cn2ccnc2)OCc2ccsc2Cl)c(Cl)c1` (configuration not stated): 0.845.

As to `O=C(c1cccc2ccccc12)N(C1CCCC1)C1CCCC1`, the relative growth is 1.05. Consider `C[C@H](O)C#Cc1ccc2c(c1)O[C@H](CN(C)C(=O)Nc1ccccc1)[C@H](C)CN([C@H](C)CO)S2(=O)=O`, for which the relative growth was 0.978.

For `COCCNC(=O)C[C@H]1CC[C@@H]2[C@H](COc3ccc(NC(=O)Nc4cccc(F)c4)cc3C(=O)N2C)O1`, the relative growth was determined as 0.855. For the compound `CN1CCN(C(=O)C[C@@H]2CC[C@@H]3[C@H](COC[C@H](O)CN3S(=O)(=O)c3cccc(F)c3)O2)CC1`, the relative growth came out at 1.04. The same measure for `CC(=O)Oc1cc2c(s1)CCN([C@H](C(=O)C1CC1)c1ccccc1F)C2`: 1.34; for `Nc1ccc(Sc2ccc3ccccc3c2Cl)c(Cl)c1`: 0.886; for `Cl.NC(CS)C(=O)O` (configuration not stated): 0.9. The value for `C[C@](N)(Cc1ccc(O)c(O)c1)C(=O)O` was 0.931; that for `c1cnc(N2CCN(Cc3ccc4c(c3)OCO4)CC2)nc1` was 0.889; that for `O=C(C[C@@H]1C/C=C/C[C@H](Cc2ccccc2)C(=O)N[C@H](c2ccccc2)COC1=O)NCc1ccc(Cl)cc1` was 0.892.

On to `Cc1cc(O)c(C(=O)/C=C/N(C)C)c(=O)o1`, for which the relative growth stood at 1.07. Consider `COc1cc2c(cc1OC)-c1c(oc3c4c(ccc3c1=O)OC(C)(C)C=C4)CO2`, for which the relative growth is 1.15.

`IC(I)I` displayed a relative growth of 0.598.

The compound `CN1C(=O)c2ccccc2C1=O` gave a relative growth of 1.02. The same measure for `COc1cccc(C(=O)c2ccccc2)c1`: 0.997. The same measure for `COc1cccc(S(=O)(=O)N2C[C@H](O)COC[C@@H]3O[C@@H](CC(=O)N4CCN(C)CC4)CC[C@H]32)c1`: 0.856; for `C[C@@H]1COS(=O)(=O)N1`: 0.952. `C/C=C/c1ccc2c(c1)O[C@@H](CN(C)Cc1ccc(C(=O)O)cc1)[C@H](C)CN([C@@H](C)CO)S2(=O)=O`: the relative growth was determined as 1.17. As for `COc1cc2c(cc1OC)CN(C(=O)[C@@H]1[C@H]3C(=O)O[C@H](c4ccccc4)[C@H](c4ccccc4)N3[C@H](c3ccc(OCCO)cc3)[C@@]13C(=O)Nc1ccccc13)CC2`, the relative growth is 1.23. `Cc1ccc(NC2=CC(=O)C[C@H](c3ccc(Cl)cc3)C2)cc1` registered a relative growth of 1.01. The value for `O=C(C[C@@H]1C=C[C@@H](NC(=O)Cc2ccccn2)[C@H](CO)O1)NCCc1ccncc1` was 0.981; that for `O=C(C[C@@H]1CC[C@H]2[C@@H](COC[C@H](O)CN2C(=O)Nc2cccc(F)c2)O1)NCc1ccccc1Cl` was 0.945. The same measure for `CCOC(=O)C1=C(COCCN)NC(C)=C(C(=O)OC)C1c1ccccc1Cl.O=S(=O)(O)c1ccccc1` (configuration not stated): 1.1; for `Cc1ccc(NC(=O)c2ccc(CN3CCN(C)CC3)cc2)cc1Nc1nccc(-c2cccnc2)n1`: 0.997; for `CO[C@@H]1CN(C)C(=O)c2cc(NC(=O)Nc3ccccc3F)ccc2OC[C@H](C)N(Cc2ccccc2C(=O)O)C[C@@H]1C`: 1.

On to `O=C(C[C@@H]1C=C[C@H](NC(=O)c2cccnc2)[C@H](CO)O1)NCCN1CCCCC1`, for which the relative growth was 1.09. The same measure for `COCC(=O)Nc1ccc2c(c1)OC[C@@H](C)N(C(=O)Cc1ccccn1)C[C@H](C)[C@@H](OC)CN(C)C2=O`: 1.07; for `C[C@@H]1CN([C@H](C)CO)C(=O)c2cc(C#CCN(C)C)cnc2O[C@@H]1CN(C)C(=O)Nc1cccc(F)c1`: 0.966; for `Cn1cnc(S(=O)(=O)N2C[C@@H](O)COC[C@@H]3O[C@H](CC(=O)NC4CCC4)CC[C@H]32)c1`: 1.08.

Take `O=C(NC[C@@H](O)CO)[C@]1(Cc2ccccc2)N=C(c2ccc(OCCCO)cc2)O[C@@H]1c1ccccc1`: the relative growth was found to be 0.718. `Cc1ccccc1S(=O)(=O)N1C[C@@H](O)COC[C@@H]2O[C@@H](CC(=O)NCCc3ccccc3)CC[C@H]21` had a relative growth of 1.09. The compound `CN(C)CCC(=O)N1CCNCC1` returned a relative growth of 1.21. The value for `O=C(C[C@H]1CC[C@@H]2[C@H](COC[C@@H](O)CN2S(=O)(=O)c2ccccc2)O1)NCc1ccc(-c2ccccc2)cc1` was 0.903; that for `O=C(C[C@@H]1CC[C@@H](NC(=O)Nc2ccc3c(c2)OCO3)[C@H](CO)O1)NCCCN1CCOCC1` was 0.865. On to `CCOC(=O)COc1ccc2c(=O)cc(-c3ccccc3)oc2c1`, for which the relative growth was found to be 0.903. The value for `NC(=O)CCNCc1ccccc1` was 0.839. `CN1C2CCCC1CC(NC(=O)c1nn(C)c3ccccc13)C2.Cl` (configuration not stated) returned a relative growth of 1.04. In the case of `Cn1c(=O)[nH]c(=O)c2[nH]cnc21`, the relative growth worked out at 0.927. With `C[N+](C)(C)CCOC(N)=O.[Cl-]`, the relative growth came out at 1.11. Consider `CCN1C(=O)S[C@@H](CC(=O)O)C1=O`, for which the relative growth was determined as 1.14. The value for `NC[C@@H](c1cccnc1)S(=O)(=O)c1ccc(Cl)cc1` was 1. The value for `FC(F)(F)c1ccc(CSc2c[nH]c3ccccc23)cc1` was 0.812; that for `O=C(C1CCCCC1)N1CC(=O)N2CCc3ccccc3C2C1` (configuration not stated) was 1.05; that for `COc1oc(C(=O)NC2CCCCC2)c(-c2ccc(Cl)cc2)c1S(=O)(=O)c1ccc2c(c1)OCCO2` was 1.21. The value for `O=C(C[C@H]1CC[C@@H]2[C@H](COC[C@H](O)CN2C(=O)c2ccc3c(c2)OCO3)O1)NCCN1CCCC1` was 0.981; that for `COCC#Cc1ccc2c(c1)O[C@@H](CN(C)C(=O)C1CCOCC1)[C@@H](C)CN([C@H](C)CO)S2(=O)=O` was 1.01; that for `C[C@H]1CN([C@@H](C)CO)S(=O)(=O)c2ccc(C#CC(C)(C)O)cc2O[C@@H]1CN(C)C(=O)CN(C)C` was 1.09. `Cc1ccc(S(=O)(=O)N2C[C@H](O)COC[C@H]3O[C@@H](CC(=O)NCCCN(C)C)CC[C@@H]32)cc1`: the relative growth turned out to be 1.16. The same measure for `NC(=S)Nc1ccc(S(N)(=O)=O)cc1`: 1.15; for `Cn1cnc(S(=O)(=O)N2C[C@H](O)COC[C@H]3O[C@@H](CC(=O)NC4CCC4)CC[C@@H]32)c1`: 0.906. The compound `Cc1ccc(S[C@]2(C(=O)NCc3ccccc3)CC(=O)N(Cc3ccccc3C(F)(F)F)[C@@H]2c2ccc(CO)cc2)cc1` came in with a relative growth of 1.12. The same measure for `CC(C)CC#Cc1ccc2c(c1)O[C@@H](CN(C)S(=O)(=O)c1ccc(F)cc1)[C@H](C)CN([C@H](C)CO)S2(=O)=O`: 1.09; for `C[N+](C)(C)CCCC[C@@H]1NC(=O)[C@H]2C[C@@H](C(=O)NCc3ccc(F)cc3)[C@@H](c3cccc(OCCO)c3)N2C1=O`: 0.926. In the case of `O=C(C[C@H]1C=C[C@H](NC(=O)Nc2cc(F)ccc2F)[C@H](CO)O1)NCCCN1CCOCC1`, the relative growth amounted to 1.04. `OC[C@H]1O[C@H](O[C@]2(CCl)O[C@H](CCl)[C@@H](O)[C@@H]2O)[C@H](O)[C@@H](O)[C@H]1Cl` displayed a relative growth of 0.923.

`COc1ccc(S(=O)(=O)N[C@@H]2C=C[C@@H](CC(=O)N3CCN(c4ccccc4)CC3)O[C@@H]2CO)cc1` returned a relative growth of 0.935. The value for `CCCNC(=O)N1C[C@@H](O)COC[C@@H]2O[C@@H](CC(=O)N3CCOCC3)CC[C@H]21` was 0.989; that for `O=C([O-])P(=O)([O-])[O-].[Na+].[Na+].[Na+]` was 1.02; that for `O=c1c(-c2nn[nH]n2)coc2ccccc12` was 1.01. Take `COc1ccc(S(=O)(=O)N(C)C[C@@H]2Oc3c(NC(=O)Nc4cccc5ccccc45)cccc3C(=O)N([C@@H](C)CO)C[C@H]2C)cc1C`: the relative growth turned out to be 1.05.

`COc1ccc2c(c1)c(CC(=O)O)c(C)n2C(=O)c1ccc(Cl)cc1` gave a relative growth of 1.15. For the compound `CC(C)N(C[C@H]1O[C@@H](n2cnc3c(N)ncnc32)[C@H](O)[C@@H]1O)[C@H]1C[C@@H](CCc2nc3ccc(C(C)(C)C)cc3[nH]2)C1`, the relative growth worked out at 1.51. The same measure for `CC1(C)C=Cc2c(c3c(c4c(=O)c(-c5ccc(O)c(O)c5)coc24)OC(C)(C)CC3)O1`: 0.864; for `CCCNC(=O)N[C@H]1C=C[C@@H](CC(=O)N2CCN(C)CC2)O[C@@H]1CO`: 1.07. For `Cc1c(C(=O)O)sc2[nH]cnc(=O)c12`, the relative growth turned out to be 0.912. `Cc1ccc(-c2ccc3c(c2)O[C@@H](CN(C)C(=O)CN(C)C)[C@H](C)CN([C@@H](C)CO)S3(=O)=O)cc1` gave a relative growth of 0.811.

On to `CNC(=O)C(=O)NCCc1c[nH]c2ccccc12`, for which the relative growth was 1.06. As for `Nc1nc2ccc(OC(F)(F)F)cc2s1`, the relative growth was determined as 0.908. The compound `C=C1CCC2[C@](C)(CO)[C@H](O)CC[C@@]2(C)[C@@H]1C/C=C1/C(=O)OC[C@H]1O` (some centres not stated) displayed a relative growth of 1.05. As for `Oc1cc(O)c2c(c1)O[C@H](c1ccc(O)c(O)c1)[C@H](O)C2`, the relative growth came out at 1.06. The same measure for `CCCCc1oc2ccc(NS(C)(=O)=O)cc2c1C(=O)c1ccc(OCCCN(CCCC)CCCC)cc1.Cl`: 1.09. The compound `C[C@@H]1CN([C@H](C)CO)S(=O)(=O)c2ccc(C#CC(C)(C)O)cc2O[C@H]1CN(C)C(=O)CN(C)C` showed a relative growth of 0.736. In turn, `CCc1nc2ccccc2c(N)c1C` returned a relative growth of 0.853. Regarding `NCC[C@@H]1CC[C@@H](NC(=O)C2CCCC2)[C@@H](CO)O1`, the relative growth came to 0.981. Consider `CCCCC(=O)O[C@H]1CCC2C3CCc4cc(O)ccc4C3CC[C@@]21C` (some centres not stated), for which the relative growth was 1.41. Regarding `C(=N\n1cnnc1)/c1ccco1`, the relative growth is 0.857. The same measure for `C[C@@H]1CN([C@@H](C)CO)S(=O)(=O)c2ccc(C#Cc3ccc(F)cc3)cc2O[C@@H]1CN(C)S(=O)(=O)c1ccc(F)cc1`: 1.12. The value for `NC(=O)C(C(N)=O)[C@H]1CCS(=O)(=O)C1` was 1.08; that for `CN1CCN(C(=O)C[C@H]2CC[C@@H]3[C@H](COC[C@@H](O)CN3C(=O)Nc3cc(Cl)cc(Cl)c3)O2)CC1` was 0.857. Take `COCC(=O)N[C@@H]1C=C[C@H](CC(=O)N2CCCCC2)O[C@H]1CO`: the relative growth was 0.926. The same measure for `CN(C)CCCNC(=O)C[C@@H]1CC[C@@H](NS(=O)(=O)c2ccccc2)[C@@H](CO)O1`: 1.01.

These data come from published antibiotic growth screens (doi:10.1038/s41589-023-01349-8).
